Ab-91 heavy chain CDR variants: yeast mating affinities

Target: peptide PDVDLGDISGINAS, taken from heptad repeat 2 (HR2) of SARS-CoV-2 spike.

Parent scFv Ab-91: VL joined to VH by three GGGGS repeats. Changes lie in the heavy chain CDRs alone.
VL: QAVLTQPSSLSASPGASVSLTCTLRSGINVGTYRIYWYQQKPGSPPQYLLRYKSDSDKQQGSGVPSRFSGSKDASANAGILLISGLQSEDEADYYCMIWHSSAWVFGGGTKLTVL
VH: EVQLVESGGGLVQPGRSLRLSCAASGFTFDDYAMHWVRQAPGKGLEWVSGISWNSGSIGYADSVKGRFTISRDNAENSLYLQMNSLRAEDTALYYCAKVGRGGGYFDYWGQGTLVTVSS

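AAYL51 was designed without a model: most single CDR substitutions and a random sample of double and triple ones. The assay is AlphaSeq: two haploid yeast populations carry antibody and antigen on their surface. Mating (16 h, 30 °C) was followed by selection of diploids and sequencing of their barcodes. A regression on co-assayed BCL2-family reference pairs converts the normalised counts of each replicate to an apparent Kd. Mating was done three times.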

Substitutions are numbered in sequence along the VH above, starting at 1 (not Kabat). The read-out is the apparent dissociation constant on a log10 scale (nM): the lower, the stronger. The mean shown is taken over the replicates in which the pair was detected. A pair that was not seen in any replicate is written "nd"; this usually means weak binding, but a binder can also be missed.

mean log10 Kd (nM),seen in,control signals,changes
3.69,1/3,4/9,Y32F K65H G103M
nd,0/3,0/9,G50W Y60L A61C
4.18,1/3,2/9,N54P K65M
3.37,1/3,0/9,N54R K65S G103P
0.93,3/3,1/9,T28F Y105Q
4.02,2/3,0/9,F29L Y60H S63I
5.35,3/3,7/9,F29V G56P F106H
5.70,2/3,2/9,T28Q M34T Y108D
2.44,3/3,2/9,T28R G56S D62H
3.52,3/3,0/9,D30Q S52T D107W
5.01,1/3,6/9,M34I H35M F106S
3.15,2/3,0/9,Y32A I58Y R101W
3.64,1/3,3/9,D30Q G50I I58S
2.71,2/3,0/9,Y32N W53R S63M
nd,0/3,0/9,G50I D62K D107A
4.82,2/3,2/9,Y32S W53F G59K
4.85,2/3,1/9,M34I R101G Y105I
6.31,1/3,4/9,H35F Y60H S63T
nd,0/3,0/9,N54Y V99I
nd,0/3,0/9,F27M G102S
2.98,1/3,0/9,N54V I58F G103Y
nd,0/3,1/9,G50M W53V G59I
nd,0/3,2/9,A33S Y60F V99D
nd,0/3,1/9,T28H V64Q G103C
4.63,3/3,6/9,T28D Y60N V99Y
5.34,1/3,3/9,I58Q G59T V64I
5.33,3/3,5/9,D31L A33P G104C
nd,0/3,0/9,T28P F29N G102L
nd,0/3,0/9,H35R S55Q D62Y
nd,0/3,1/9,Y32M H35D
1.39,3/3,0/9,W53G S57H V99P
nd,0/3,0/9,G50L G103D Y105G
2.89,3/3,1/9,F29H A33R R101L
nd,0/3,0/9,D31P G50P N54C
5.09,1/3,2/9,Y32K H35T N54F
nd,0/3,0/9,F27Y G102D Y105F
3.47,3/3,3/9,T28S D30H D62S
nd,0/3,1/9,G50K S55K V64R
nd,0/3,0/9,A33G S63I F106C
0.59,3/3,5/9,I58V Y108R
4.63,2/3,0/9,M34H S55V V99H
5.05,3/3,2/9,G50T N54R F106Y
nd,0/3,0/9,G26A S52V N54L
3.05,1/3,1/9,D31K G50F A61E
4.00,3/3,2/9,S57Y G102F Y105S
2.25,3/3,0/9,G26I A33I I58C
3.86,2/3,1/9,D31G N54A V99H
1.64,3/3,5/9,W53M A61N S63C
2.80,3/3,0/9,Y32W G100Y R101L
nd,0/3,2/9,Y32T V64H G104Y
5.11,3/3,5/9,H35N G50W D107W
nd,0/3,1/9,F27T H35D G50C
4.60,1/3,1/9,T28V F29S K65F
3.49,1/3,3/9,H35D V99H F106L
5.69,1/3,1/9,G56D G59P
4.05,3/3,2/9,F29A G56L R101A
nd,0/3,0/9,A33F D62S Y105Q
nd,0/3,0/9,T28P K65M F106M
5.07,1/3,2/9,N54T V64S F106W
nd,0/3,1/9,I51R S52G W53I

Picked from the list: the 8 lowest averages where every replicate gave a value.

| changes | mean log10 Kd (nM) | seen in | control signals |
|---|---|---|---|
| I58V Y108R | 0.59 | 3/3 | 5/9 |
| T28F Y105Q | 0.93 | 3/3 | 1/9 |
| W53G S57H V99P | 1.39 | 3/3 | 0/9 |
| W53M A61N S63C | 1.64 | 3/3 | 5/9 |
| G26I A33I I58C | 2.25 | 3/3 | 0/9 |
| T28R G56S D62H | 2.44 | 3/3 | 2/9 |
| Y32W G100Y R101L | 2.80 | 3/3 | 0/9 |
| F29H A33R R101L | 2.89 | 3/3 | 1/9 |

Three control strains display no target. For library AAYL51, 21% of the pairings with them gave a signal, with a median of 4.54 and one signal in twenty below 3.26, so weak values seen in few replicates may be background. For each scFv, signals with the empty controls are counted beside the result. In this assay the parent's reference entry averaged 1.86; its copy inside this library read 0.88.

From the AlphaSeq antibody data of Engelhart et al. 2022 (doi:10.1038/s41597-022-01779-4), copy in the FLAb collection.